Results published in patent US5219872A, “Compounds of 1,2,5,6-tetrahydropyridin-3-carboxaldehyde oxime which are useful as cholinergic agents” (Roussel UCLAF, priority 1986, dated 1993).

Assay: in vivo
Details: rat, oral route, male rats CD1, fasting 16 hours, mortality in seven days
Procedure: Male rats (CD1 Charles Rivers) were used, weighing […], fasting for 16 hours. […] The mortality was checked in the seven days following the treatment.

## CON=CC1=CCCN(C)C1 [Example 1, 1-methyl-1,2,5,6-tetrahydropyridin-3-carboxyaldehyde-O-methyloxime hydrochloride]
  LD50 at 168 h: 450 mg/kg

Structures can show the parent of a compound that is named as a salt.
